From paper PMC5681660, “Reduced hepatitis B and D viral entry using clinically applied drugs as novel inhibitors of the bile acid transporter NTCP” (Scientific Reports, 2017)

These compounds were tested against T1, human NTCP (Homo sapiens, UniProt Q14973) (assay: Screening fluorescent competitive Myrcludex B-FITC binding assay (96-well, 10 µM drug)). Details: 0.5 h, read-out: %NTCP binding, screening Myrcludex B-FITC binding, 10 µM drug, Prestwick library.
T1 sequence (Q14973 1-349): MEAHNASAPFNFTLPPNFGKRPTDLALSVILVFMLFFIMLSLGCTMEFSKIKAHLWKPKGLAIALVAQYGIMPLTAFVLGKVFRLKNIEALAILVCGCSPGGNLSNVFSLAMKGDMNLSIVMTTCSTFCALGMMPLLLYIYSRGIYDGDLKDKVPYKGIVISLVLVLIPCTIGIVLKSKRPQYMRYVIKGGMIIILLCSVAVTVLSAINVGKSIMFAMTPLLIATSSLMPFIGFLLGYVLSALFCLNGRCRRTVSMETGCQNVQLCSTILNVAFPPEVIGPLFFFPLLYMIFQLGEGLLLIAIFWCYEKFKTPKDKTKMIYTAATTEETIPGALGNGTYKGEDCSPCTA

| Structure (SMILES) | remaining activity at 10 µM [%] |
| --- | --- |
| NC(=O)C[S+]([O-])C(c1ccccc1)c1ccccc1 (stereo not shown) [Modafinil] | 79.1 |
| C=CC[C@]1(O)CC[C@H]2[C@@H]3CCC4=CC(=O)CCC4=C3C=C[C@@]21C [Altrenogest] | 84.6 |

Same assay, conditions: screening Myrcludex B-FITC binding, 10 µM drug

| Structure (SMILES) | B-score binding assay |
| --- | --- |
| CC(=O)N[C@@H](CC(C)C)C(=O)O [N-Acetyl-L-leucine] | 2.858 |
| CN(C)CCC[C@@]1(c2ccc(F)cc2)OCc2cc(C#N)ccc21 [Escitalopram oxalate] | -0.472 |
| Cc1cccn2c(=O)c(-c3nnn[nH]3)cnc12 [Pemirolast potassium] | -0.574 |
| CN(C)CCCOc1nn(Cc2ccccc2)c2ccccc12 [Benzydamine hydrochloride] | -0.285 |
| CC(C)(C)NC[C@@H](O)COc1cccc2c1CCCC2=O.Cl [(+) -Levobunolol hydrochloride] | 0.328 |
| COc1ccc(CCN2CCC(Nc3nc4ccccc4n3Cc3ccc(F)cc3)CC2)cc1 [Astemizole] | -2.201 |
| Cl.Cl.OCCN1CCN(CC/C=C2/c3ccccc3Sc3ccc(Cl)cc32)CC1 [Zuclopenthixol dihydrochloride] | -1.746 |
| CC[N+](CC)(CC)CCC(O)(c1ccccc1)C1CCCCC1.[Cl-] (stereo not shown) [Tridihexethyl chloride] | -1.168 |
| c1ccc2c(CC3=NCCN3)cccc2c1 [Naphazoline hydrochloride] | -1.427 |
| [H]/N=C(\N/C(=N/[H])NCCCCCCNC(=N)NC(=N)Nc1ccc(Cl)cc1)Nc1ccc(Cl)cc1 [Chlorhexidine] | -2.972 |
| Cn1cnc2c1c(=O)[nH]c(=O)n2C [Theobromine] | 0.508 |
| C=C1c2cccc(O)c2C(=O)C2=C(O)[C@]3(O)C(=O)C(C(N)=O)=C(O)[C@@H](N(C)C)[C@@H]3[C@@H](O)[C@H]12 [Methacycline hydrochloride] | -2.293 |
| Cn1c(NCCN(CCO)CCCc2ccc([N+](=O)[O-])cc2)cc(=O)n(C)c1=O [Nifekalant] | -0.814 |
| NC(=O)C[S+]([O-])C(c1ccccc1)c1ccccc1 (stereo not shown) [Modafinil] | -1.282 |
| C[N+]1(C)CCCC(OC(=O)C(O)(c2ccccc2)c2ccccc2)C1 (stereo not shown) [Mepenzolate bromide] | -0.876 |
| C=CC[C@]1(O)CC[C@H]2[C@@H]3CCC4=CC(=O)CCC4=C3C=C[C@@]21C [Altrenogest] | -0.328 |
| CC1(C)S[C@@H]2[C@H](NC(=O)[C@H](NC(=O)N3CCNC3=O)c3ccccc3)C(=O)N2[C@H]1C(=O)O [Azlocillin sodium salt] | -3.095 |
| CCc1oc2ccccc2c1C(=O)c1cc(Br)c(O)c(Br)c1 [Benzbromarone] | 0.673 |
| O=C(O)CCCc1ccc(N(CCCl)CCCl)cc1 [Chlorambucil] | -1.245 |
| CN1[C@@H]2CC[C@H]1C[C@@H](OC(=O)c1c[nH]c3ccccc13)C2 [Tropisetron HCl] | 2.574 |
| CN(C)C/C=C(\c1ccc(Br)cc1)c1cccnc1.Cl.Cl.O [Zimelidine dihydrochloride monohydrate] | -0.674 |
| CCc1cccc(CC)c1NC(=O)CN(CC(=O)O)CC(=O)O [Etifenin] | -0.181 |
| CCN1CCN(C(=O)N[C@@H](C(=O)N[C@@H]2C(=O)N3[C@@H]2SC(C)(C)[C@@H]3C(=O)O)c2ccccc2)C(=O)C1=O [Piperacillin sodium salt] | -0.015 |
| CCCC(=O)Nc1ncnc2c1ncn2[C@@H]1O[C@@H]2COP(=O)([O-])O[C@H]2[C@H]1OC(=O)CCC.[Na+] [Bucladesine sodium salt] | -0.083 |

Same assay, conditions: screening Myrcludex B-FITC binding, 10 µM drug, Prestwick library

| Structure (SMILES) | %NTCP binding [%] |
| --- | --- |
| CC(C)(C)NC[C@@H](O)COc1cccc2c1CCCC2=O.Cl [(+) -Levobunolol hydrochloride] | 93.69 |
| CC[N+](CC)(CC)CCC(O)(c1ccccc1)C1CCCCC1.[Cl-] (stereo not shown) [Tridihexethyl chloride] | 87.4487 |
| CCN(CC)CCNC(=O)c1cc(Cl)c(N)cc1OC.Cl [Metoclopramide monohydrochloride] | 57.0233 |
| CN(C)C(=O)Oc1ccc[n+](C)c1.[I-] [Pyridostigmine iodide] | 92.5819 |
| CCCC(=O)Nc1ncnc2c1ncn2[C@@H]1O[C@@H]2COP(=O)([O-])O[C@H]2[C@H]1OC(=O)CCC.[Na+] [Bucladesine sodium salt] | 108.681 |

Same assay, conditions: screening Myrcludex B-FITC binding, 10 µM drug; B-score

| Structure (SMILES) | B-score binding assay |
| --- | --- |
| O=C(NCCO[N+](=O)[O-])c1cccnc1 [Nicorandil] | 2.801 |
| CCN(CC)CCNC(=O)c1cc(Cl)c(N)cc1OC.Cl [Metoclopramide monohydrochloride] | 3.653 |
| CN(C)C(=O)Oc1ccc[n+](C)c1.[I-] [Pyridostigmine iodide] | 3.334 |

Counter-ions that a name gives are not always drawn.
